Assay results from ChEMBL document CHEMBL1132920, “Syntheses of (R)- and (S)-2- and 6-fluoronorepinephrine and (R)- and (S)-2- and 6-fluoroepinephrine: effect of stereochemistry on fluorine-induced adrenergic selectivities” (J Med Chem, 2000).

By UniProt entry, the sequences of proteins in these tests, tags left out. Where a name states a change or a piece, a line headed by the entry shows the natural chain unless it says otherwise.
UniProt P22086: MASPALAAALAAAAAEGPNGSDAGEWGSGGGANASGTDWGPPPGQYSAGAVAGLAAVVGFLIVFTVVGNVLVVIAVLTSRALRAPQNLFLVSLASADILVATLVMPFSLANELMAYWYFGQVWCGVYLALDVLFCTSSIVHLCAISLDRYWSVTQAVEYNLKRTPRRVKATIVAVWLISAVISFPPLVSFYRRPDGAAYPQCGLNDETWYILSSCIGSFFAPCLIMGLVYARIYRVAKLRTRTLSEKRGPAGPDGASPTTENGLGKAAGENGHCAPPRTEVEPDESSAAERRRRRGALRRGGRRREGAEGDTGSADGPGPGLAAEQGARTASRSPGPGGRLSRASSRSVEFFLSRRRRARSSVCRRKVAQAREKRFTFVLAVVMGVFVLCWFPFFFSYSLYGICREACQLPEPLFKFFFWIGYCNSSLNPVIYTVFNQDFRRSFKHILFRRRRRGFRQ
UniProt P19328: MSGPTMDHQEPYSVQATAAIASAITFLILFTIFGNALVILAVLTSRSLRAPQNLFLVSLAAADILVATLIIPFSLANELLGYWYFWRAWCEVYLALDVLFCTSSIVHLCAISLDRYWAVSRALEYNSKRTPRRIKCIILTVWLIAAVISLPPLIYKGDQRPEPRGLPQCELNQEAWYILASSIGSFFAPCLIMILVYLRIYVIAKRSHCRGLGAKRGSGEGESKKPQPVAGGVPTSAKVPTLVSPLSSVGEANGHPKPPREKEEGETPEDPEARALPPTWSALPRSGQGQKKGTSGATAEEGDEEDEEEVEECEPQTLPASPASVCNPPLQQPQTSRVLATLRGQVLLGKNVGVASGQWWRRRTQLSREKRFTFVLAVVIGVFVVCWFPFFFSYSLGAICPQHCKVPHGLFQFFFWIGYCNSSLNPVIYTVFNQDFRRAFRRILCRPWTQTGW
UniProt P22909: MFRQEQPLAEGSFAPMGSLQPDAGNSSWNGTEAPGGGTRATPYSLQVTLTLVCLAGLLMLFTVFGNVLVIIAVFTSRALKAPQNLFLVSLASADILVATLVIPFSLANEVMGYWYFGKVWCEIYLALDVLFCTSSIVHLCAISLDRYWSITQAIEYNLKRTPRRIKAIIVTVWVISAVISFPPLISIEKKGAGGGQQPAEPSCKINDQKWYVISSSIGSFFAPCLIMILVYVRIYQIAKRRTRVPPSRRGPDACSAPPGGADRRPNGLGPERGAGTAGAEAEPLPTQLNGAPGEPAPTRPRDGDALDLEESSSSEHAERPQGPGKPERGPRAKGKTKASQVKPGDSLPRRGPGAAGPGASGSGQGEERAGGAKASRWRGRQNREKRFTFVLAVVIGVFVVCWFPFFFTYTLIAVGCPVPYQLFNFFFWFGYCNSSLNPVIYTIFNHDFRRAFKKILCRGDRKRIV
UniProt P15823: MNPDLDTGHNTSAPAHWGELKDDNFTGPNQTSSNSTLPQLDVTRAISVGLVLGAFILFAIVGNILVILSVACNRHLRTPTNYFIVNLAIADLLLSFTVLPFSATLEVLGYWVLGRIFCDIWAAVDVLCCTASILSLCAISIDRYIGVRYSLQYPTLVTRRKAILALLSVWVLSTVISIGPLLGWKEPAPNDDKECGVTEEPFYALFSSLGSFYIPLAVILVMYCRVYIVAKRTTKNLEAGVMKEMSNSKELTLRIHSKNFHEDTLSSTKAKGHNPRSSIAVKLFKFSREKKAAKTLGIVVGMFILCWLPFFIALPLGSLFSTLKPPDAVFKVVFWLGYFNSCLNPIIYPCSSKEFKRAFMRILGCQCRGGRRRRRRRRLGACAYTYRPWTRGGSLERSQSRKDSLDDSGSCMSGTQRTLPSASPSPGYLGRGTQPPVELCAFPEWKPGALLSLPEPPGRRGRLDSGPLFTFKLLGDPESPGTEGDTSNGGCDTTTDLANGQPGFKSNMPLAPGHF
UniProt P23944: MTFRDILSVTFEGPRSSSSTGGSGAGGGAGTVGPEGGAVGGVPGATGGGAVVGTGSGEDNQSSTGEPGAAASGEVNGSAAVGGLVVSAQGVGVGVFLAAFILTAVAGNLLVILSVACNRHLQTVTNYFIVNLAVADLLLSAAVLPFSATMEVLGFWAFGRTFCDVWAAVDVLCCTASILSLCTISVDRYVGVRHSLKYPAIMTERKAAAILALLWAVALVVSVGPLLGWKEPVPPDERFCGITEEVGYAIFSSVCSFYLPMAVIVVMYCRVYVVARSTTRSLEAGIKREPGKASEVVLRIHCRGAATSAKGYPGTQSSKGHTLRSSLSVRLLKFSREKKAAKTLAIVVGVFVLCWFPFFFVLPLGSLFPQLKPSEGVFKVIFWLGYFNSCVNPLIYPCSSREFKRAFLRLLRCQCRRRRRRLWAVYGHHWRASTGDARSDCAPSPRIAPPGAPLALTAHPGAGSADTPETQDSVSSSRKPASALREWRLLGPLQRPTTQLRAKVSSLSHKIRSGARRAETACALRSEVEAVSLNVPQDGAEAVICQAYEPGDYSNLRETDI
UniProt P43140: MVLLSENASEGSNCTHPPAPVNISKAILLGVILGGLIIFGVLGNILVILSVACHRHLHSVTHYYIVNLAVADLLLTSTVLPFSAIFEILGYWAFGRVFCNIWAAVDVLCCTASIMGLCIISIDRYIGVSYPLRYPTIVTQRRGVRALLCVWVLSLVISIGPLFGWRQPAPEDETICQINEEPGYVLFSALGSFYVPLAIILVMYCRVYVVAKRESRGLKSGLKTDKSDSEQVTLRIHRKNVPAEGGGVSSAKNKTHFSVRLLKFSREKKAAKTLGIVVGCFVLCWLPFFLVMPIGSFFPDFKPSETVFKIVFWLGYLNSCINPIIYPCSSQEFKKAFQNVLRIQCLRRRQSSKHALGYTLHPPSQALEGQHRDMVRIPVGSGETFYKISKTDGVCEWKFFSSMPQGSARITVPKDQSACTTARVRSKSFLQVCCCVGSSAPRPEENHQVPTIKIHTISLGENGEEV

Columns and labels:
[1] = molecular target: Adrenergic receptor alpha-2 (Rattus norvegicus, UniProt P22086+P19328+P22909); experiment: Binding of [3H]clonidine to alpha-2-adrenergic receptor of rat cerebral cortical membranes; format: cell membranes, Membrane
[2] = molecular target: Adrenergic receptor alpha-1 (Rattus norvegicus, UniProt P15823+P23944+P43140); experiment: Binding of [3H]prazosin to alpha-1 adrenergic receptor of rat cerebral cortical membranes; format: cell membranes, Membrane
Procedure, shortened: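 Affinity at alpha-1 adrenergic receptors measured as inhibition of specific [3H]prazosin binding to rat cerebral cortical membranes.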

Ki [1] [nM]	Ki [2]	Structure (SMILES)
15	2.8 µM	CNC[C@H](O)c1ccc(O)c(O)c1 (racemic) [EPINEPHRINE]
13	1.6 µM	CNC[C@H](O)c1ccc(O)c(O)c1 [EPINEPHRINE]
45	~ 20 uM	CNC[C@@H](O)c1ccc(O)c(O)c1 [L-ADRENALINE]
